Measured values as given in paper PMC2742655 (Bioorganic & medicinal chemistry letters, 2009).

Tested on: P. falciparum W2 strain (chloroquine-resistant)
Assay: Antiplasmodial activity, growth of P. falciparum W2 strain
Assay type: cell-based
Conditions: Plasmodium falciparum, W2, read-out: IC50 W2 P. falciparum

IC50: 1.96 ± 0.121 µM
Compound: CC(C)C[C@H](NC(=O)[C@H]1O[C@@H]1C(=O)O)C(=O)NCCCCN=C(N)N [Compound E64, E64]
